{
  "sequences": {"note": "Chains of the proteins cited; added tags and fusions are not shown.", "UniProt P00533, whole entry": "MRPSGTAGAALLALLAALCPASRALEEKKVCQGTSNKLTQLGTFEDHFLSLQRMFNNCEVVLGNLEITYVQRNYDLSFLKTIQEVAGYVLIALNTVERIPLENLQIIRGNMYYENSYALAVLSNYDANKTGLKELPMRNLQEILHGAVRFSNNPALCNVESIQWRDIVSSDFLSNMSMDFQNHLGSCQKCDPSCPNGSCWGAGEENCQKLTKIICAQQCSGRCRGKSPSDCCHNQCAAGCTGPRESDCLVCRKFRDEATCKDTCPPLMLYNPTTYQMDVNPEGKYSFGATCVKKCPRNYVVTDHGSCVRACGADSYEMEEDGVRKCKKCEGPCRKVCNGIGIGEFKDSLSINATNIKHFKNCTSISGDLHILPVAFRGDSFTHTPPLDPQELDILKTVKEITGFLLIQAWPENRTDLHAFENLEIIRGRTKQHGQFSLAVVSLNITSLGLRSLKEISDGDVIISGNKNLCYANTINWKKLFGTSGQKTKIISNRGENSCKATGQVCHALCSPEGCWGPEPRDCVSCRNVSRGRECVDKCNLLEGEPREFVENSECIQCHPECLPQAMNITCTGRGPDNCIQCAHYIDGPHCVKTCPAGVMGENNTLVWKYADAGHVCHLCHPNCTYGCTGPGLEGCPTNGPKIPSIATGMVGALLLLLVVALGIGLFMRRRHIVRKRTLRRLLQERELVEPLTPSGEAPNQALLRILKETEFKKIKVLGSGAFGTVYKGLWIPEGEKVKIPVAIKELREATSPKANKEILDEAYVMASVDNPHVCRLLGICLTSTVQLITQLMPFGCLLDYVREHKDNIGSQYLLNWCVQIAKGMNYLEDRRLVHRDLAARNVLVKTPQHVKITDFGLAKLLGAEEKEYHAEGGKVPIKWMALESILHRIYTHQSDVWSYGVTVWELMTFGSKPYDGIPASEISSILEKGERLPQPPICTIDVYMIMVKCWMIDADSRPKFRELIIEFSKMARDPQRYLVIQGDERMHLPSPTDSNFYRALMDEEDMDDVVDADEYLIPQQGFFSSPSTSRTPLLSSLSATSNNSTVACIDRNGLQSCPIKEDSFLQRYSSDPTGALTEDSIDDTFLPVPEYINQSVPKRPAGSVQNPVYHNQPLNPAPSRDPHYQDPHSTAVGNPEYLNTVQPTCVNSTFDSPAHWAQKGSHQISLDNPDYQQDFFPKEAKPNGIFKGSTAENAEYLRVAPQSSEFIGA"},
  "source": "ChEMBL document CHEMBL1136058",
  "about": "“4-Anilino-3-cyanobenzo[g]quinolines as kinase inhibitors” (Bioorg Med Chem Lett, 2002)",
  "key": {"[1]": {"test_system": "SW-620", "assay": "Inhibition of SW620 cell proliferation", "settings": "Homo sapiens"}, "[2]": {"target": "Epidermal growth factor receptor (Homo sapiens, UniProt P00533)", "assay": "Inhibition of epidermal growth factor receptor (EGFR)"}},
  "data": [
    {"smiles": "COc1cc2ncc(C#N)c(Nc3ccc(F)c(Cl)c3)c2cc1OC", "values": [
      {"measurement": "IC50", "setting": "[1]", "value": 9.89, "unit": "µM"},
      {"measurement": "IC50", "setting": "[2]", "value": 5.17, "unit": "µM"}
    ]}
  ]
}
